Our source for the Ratio IC50 values is ChEMBL document CHEMBL4699469, “Recent Developments in the Biology and Medicinal Chemistry of CDK9 Inhibitors: An Update” (J Med Chem, 2020).

The species named for this test is Homo sapiens. As to the kind of experiment: Selectivity ratio of IC50 for human His-tagged human CDK2 (M1 to L298 residue)/cyclin E1 (M1 to A395 residue) expressed in sf9 insect cells to IC50 for His-tagged human CDK9/cyclin T1 expressed in insect cells.

For the compound `CS(=N)(=N)Cc1cc2cc(c1)OCCCCOc1cc(F)ccc1-c1nc(ncc1F)N2`, the Ratio IC50 amounted to 500.
